Experimental findings from patent publication US20240208896A1, “PRODRUGS OF KV7 CHANNEL OPENERS” (Xyzagen, Inc., priority 2021, published 2024) are described below.

The structures appear in SMILES notation.

The test relates to mouse maximal electroshock (MES) assay. The experiment in a line: Mouse MES assay with plasma and brain concentration, Compound 29 oral. Format: in vivo, CF-1 mouse. Conditions: male CF-1 mice; oral 30 mg/kg; 0.25, 0.5 and 1 h. The text has this:
Each male CF-1 mouse provided one data point in the MES assay and one data point in the concentration analysis. There were 8 mice per time point.

In the case of `CCNC(=O)CC[C@H](N)C(=O)Nc1cc(NCc2ccc(F)cc2)ccc1NC(=O)OCC.Cl` [Compound 29], the “Pharmacological response in MES assay” value is “Pharmacological response reduced in tandem to the decrease in brain concentrations”.
